The values that follow come from article PMC11345774, “Discovery of Novel, Selective, and Nonbasic Agonists for the Kappa-Opioid Receptor Determined by Salvinorin A-Based Virtual Screening” (Journal of Medicinal Chemistry, 2024).

The chains behind the UniProt entries cited, without tags or fusion partners. Where a name states a change or a piece, a line headed by the entry shows the natural chain unless it says otherwise.
UniProt P41145: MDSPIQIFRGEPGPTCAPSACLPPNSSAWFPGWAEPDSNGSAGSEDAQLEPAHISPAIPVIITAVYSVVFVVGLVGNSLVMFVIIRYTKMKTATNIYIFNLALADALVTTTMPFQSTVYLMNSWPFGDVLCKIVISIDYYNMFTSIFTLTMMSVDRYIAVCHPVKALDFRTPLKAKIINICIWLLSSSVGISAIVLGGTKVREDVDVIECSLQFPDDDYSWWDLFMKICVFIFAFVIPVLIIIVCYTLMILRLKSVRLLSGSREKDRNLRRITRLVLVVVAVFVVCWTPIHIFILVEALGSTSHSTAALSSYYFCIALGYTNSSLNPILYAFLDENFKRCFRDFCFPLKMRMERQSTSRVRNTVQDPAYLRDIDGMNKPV

For this test, the target named is human KOR (Homo sapiens, UniProt P41145). Nature of the test: [35S]GTPγS binding assay (G protein activation), CHO-hKOR cell membranes. The test is classed as biochemical. Background: GTPγS resists hydrolysis and so accumulates on activated G proteins.

Take `COC(=O)[C@@H]1C[C@H](OC(C)=O)C(=O)[C@H]2[C@@]1(C)CC[C@H]1C(=O)O[C@H](c3ccoc3)C[C@]21C` [SalA, Salvinorin A]: the “G protein activation Emax” value stood at 100 ± 1%.
